Laboratory results reported in article doi:10.1101/2024.11.06.622220v2 (biorxiv, 2024).

Tested on: JaPAL

Question: With N[C@@H](Cc1ccc(O)cc1)C(=O)O [Tyr] as the compound, how does the Km read?
Answer: 17.5 µM
